Source: paper PMC10641831 (Journal of Medicinal Chemistry, 2023)

Chains of the proteins cited; added tags and fusions are not shown.
UniProt P37288, whole entry: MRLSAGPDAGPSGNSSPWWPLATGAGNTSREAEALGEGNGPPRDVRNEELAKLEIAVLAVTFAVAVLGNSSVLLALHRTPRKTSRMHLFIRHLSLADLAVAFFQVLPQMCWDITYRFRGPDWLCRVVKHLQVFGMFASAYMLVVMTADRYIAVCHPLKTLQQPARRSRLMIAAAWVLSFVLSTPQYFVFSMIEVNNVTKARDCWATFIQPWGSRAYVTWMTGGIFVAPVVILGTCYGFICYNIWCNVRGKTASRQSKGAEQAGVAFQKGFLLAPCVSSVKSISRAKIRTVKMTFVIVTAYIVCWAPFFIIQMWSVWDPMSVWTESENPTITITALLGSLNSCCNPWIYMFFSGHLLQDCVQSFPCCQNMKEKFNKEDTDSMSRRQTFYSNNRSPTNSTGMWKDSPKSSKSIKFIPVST

Assays:
hV1aR = biological target: T1, hV1aR (Homo sapiens, UniProt P37288); assay: IP-One accumulation assay, agonist function, HEK293 cells expressing hV1aR; type: cell-based; conditions: supplementary CSV; read-out: activity E-isomer V1aR
T1 construct: expressed in transfected cells

hV1bR = biological target: T2, hV1bR (Homo sapiens, UniProt P47901); assay: IP-One accumulation assay, agonist function, HEK293 cells expressing hV1bR; type: cell-based; conditions: supplementary CSV; read-out: activity E-isomer V1bR
T2 construct: expressed in transfected cells
T2 sequence (P47901 1-424): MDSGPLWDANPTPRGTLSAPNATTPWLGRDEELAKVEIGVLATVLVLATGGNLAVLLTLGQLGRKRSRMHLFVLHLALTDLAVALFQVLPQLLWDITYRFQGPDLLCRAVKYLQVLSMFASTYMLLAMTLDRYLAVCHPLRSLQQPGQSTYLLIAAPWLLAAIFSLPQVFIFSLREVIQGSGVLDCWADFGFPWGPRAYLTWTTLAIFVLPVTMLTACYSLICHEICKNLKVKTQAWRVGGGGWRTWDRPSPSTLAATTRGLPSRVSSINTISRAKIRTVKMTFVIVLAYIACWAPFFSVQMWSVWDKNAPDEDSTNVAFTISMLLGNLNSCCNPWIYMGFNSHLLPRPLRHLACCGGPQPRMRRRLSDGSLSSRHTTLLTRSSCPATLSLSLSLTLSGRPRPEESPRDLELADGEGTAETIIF

Compound: N=C(N)NCCC[C@H](NC(=O)[C@@H]1CCCN1C(=O)[C@@H]1CSSC[C@H](N)C(=O)N[C@@H](Cc2ccc(O)cc2)C(=O)N[C@@H](Cc2ccc(/N=N/c3ccccc3)cc2)C(=O)N[C@@H](CCC(N)=O)C(=O)N[C@@H](CC(N)=O)C(=O)N1)C(=O)NCC(N)=O [compound 12, [AzbS^3]-VP]
- EC50 (hV1aR): 722 ± 53 nM
- EC50 (hV1bR): 107 ± 13 nM
